Here are results for one substance from patent US10815444B2, “Use of specific derivatives of quaternized nitrogen compounds as additives in fuels and lubricants” (BASF SE, priority 2013, dated 2020).

The conditions of this series: concentration of 50% (w/w).

Regarding “C12/14-NMe3-Methyl Oxalate [Comparative example 1, reference compound]”, the “solubility in Solvent Naphtha” value is recorded as “insoluble”.
